Data reported in article PMC7723054.
This is one part of the list.

How the values were obtained:
Test in all cases: FOREST: bead pull-down of RNA structure library v1, barcode microarray; U1A/LIN28A: 20 mM HEPES pH 7.5, 80 mM KCl, 20 mM NaCl, 10% glycerol, 2 mM DTT, 0.1 ug/uL BSA, 4 C; BG4/CIRBP/DHX36: 10 mM Tris-HCl pH 7.5, 100 mM KCl (or LiCl),; high values mean tight binding
LIN28A = molecular target: T1, LIN28A (human?, UniProt Q9H9Z2 1-209)
T1 sequence: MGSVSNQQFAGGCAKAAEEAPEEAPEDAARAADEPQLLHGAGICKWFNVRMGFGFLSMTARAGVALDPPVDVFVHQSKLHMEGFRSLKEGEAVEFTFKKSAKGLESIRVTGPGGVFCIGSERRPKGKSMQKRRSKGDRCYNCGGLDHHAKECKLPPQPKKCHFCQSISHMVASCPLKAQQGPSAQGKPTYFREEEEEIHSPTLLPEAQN

CIRBP = molecular target: T2, CIRBP (Homo sapiens, UniProt Q14011 1-172)
T2 sequence: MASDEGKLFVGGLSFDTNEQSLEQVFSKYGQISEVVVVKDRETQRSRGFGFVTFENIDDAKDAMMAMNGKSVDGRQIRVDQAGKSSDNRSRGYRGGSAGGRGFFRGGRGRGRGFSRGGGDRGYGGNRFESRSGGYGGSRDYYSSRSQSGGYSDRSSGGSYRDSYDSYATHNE

DHX36 = molecular target: T3, DHX36 (Homo sapiens, UniProt Q9H2U1 1-1008)
T3 sequence: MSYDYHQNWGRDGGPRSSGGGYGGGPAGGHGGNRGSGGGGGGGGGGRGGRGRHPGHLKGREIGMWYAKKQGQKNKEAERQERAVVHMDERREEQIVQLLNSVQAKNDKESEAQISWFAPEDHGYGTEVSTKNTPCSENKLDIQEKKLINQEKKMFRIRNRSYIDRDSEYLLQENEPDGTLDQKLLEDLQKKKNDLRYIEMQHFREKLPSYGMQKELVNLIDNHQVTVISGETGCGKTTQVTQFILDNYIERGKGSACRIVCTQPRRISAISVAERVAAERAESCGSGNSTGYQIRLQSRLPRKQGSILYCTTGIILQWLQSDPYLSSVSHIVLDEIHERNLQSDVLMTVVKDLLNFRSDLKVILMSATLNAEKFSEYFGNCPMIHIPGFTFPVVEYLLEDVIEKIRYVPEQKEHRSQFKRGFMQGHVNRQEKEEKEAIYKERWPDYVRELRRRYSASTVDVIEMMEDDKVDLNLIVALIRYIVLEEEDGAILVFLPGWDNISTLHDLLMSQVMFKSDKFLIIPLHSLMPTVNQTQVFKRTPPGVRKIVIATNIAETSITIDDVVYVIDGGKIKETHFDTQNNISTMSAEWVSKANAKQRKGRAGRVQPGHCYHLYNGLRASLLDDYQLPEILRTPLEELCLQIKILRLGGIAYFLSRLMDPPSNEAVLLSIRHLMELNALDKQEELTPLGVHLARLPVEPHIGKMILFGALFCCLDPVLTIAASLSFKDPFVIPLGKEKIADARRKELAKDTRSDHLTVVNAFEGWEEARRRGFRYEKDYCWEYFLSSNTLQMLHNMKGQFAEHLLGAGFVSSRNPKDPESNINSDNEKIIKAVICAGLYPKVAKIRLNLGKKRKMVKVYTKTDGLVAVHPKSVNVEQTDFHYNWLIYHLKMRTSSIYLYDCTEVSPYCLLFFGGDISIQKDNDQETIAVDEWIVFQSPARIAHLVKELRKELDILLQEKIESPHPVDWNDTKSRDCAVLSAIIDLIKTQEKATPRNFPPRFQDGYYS

B1: hsa-mir-376a-2 (structured_RNA)
RNA: GGGAAGCGCAUGACAGUGCUCUAUUGCUGGUGUACGAAGUUUCAGCUGGUUACGUGUUUGAUGGUUAAUCAGCUGAAGCUUCGUGCAC
LIN28A
  binding signal: 0.0414 z-score
CIRBP
  binding signal: 0.21 z-score
DHX36
  binding signal: -0.89 z-score

B2: hsa-mir-6869 (structured_RNA)
RNA: GGGAAGAGAGACUUGAUAUUCCGAUCCCGGUGUACGAAGUUUCAGCGGCGGCUCGGAGUACCUCUGCCGCCGCUGAAGCUUCGUGCAC
LIN28A
  binding signal: 0.0343 z-score
CIRBP
  binding signal: 0.0878 z-score
DHX36
  binding signal: -0.326 z-score

B3: hsa-mir-520d (structured_RNA)
RNA: GGGAACUCACAAUUUCCUUCGCCGGGAUGGUGUACGAAGUUUCAGCCUUUCUGUUGUCUAAAAGAAAAGAAAGGCUGAAGCUUCGUGCAC
LIN28A
  binding signal: 0.032 z-score
CIRBP
  binding signal: 1.27 z-score
DHX36
  binding signal: -0.0616 z-score

B4: hsa-mir-766 (structured_RNA)
RNA: GGGACUGAUAACGUUGGUUUACGCAACAGGUGUACGAAGUUUCAGCUCUUUCAUUUUGGAUUUGACUGCUGAAGCUUCGUGCAC
LIN28A
  binding signal: 0.0248 z-score
CIRBP
  binding signal: -0.769 z-score
DHX36
  binding signal: -0.72 z-score

B5: hsa-mir-1304 (structured_RNA)
RNA: GGGAGCUACCAGGUUGUAUCUGACUACGGGUGUACGAAGUUUCAGCGAGAUGUGAUCCUGCCACAUCUCGCUGAAGCUUCGUGCAC
LIN28A
  binding signal: 0.0221 z-score
CIRBP
  binding signal: -0.184 z-score
DHX36
  binding signal: -0.0771 z-score

B6: hsa-mir-4657 (structured_RNA)
RNA: GGGAAGUCUCAAAGGCCGGGUUAAAACCGGUGUACGAAGUUUCAGCGCAUAUAGAGUAUAUGCGCUGAAGCUUCGUGCAC
LIN28A
  binding signal: 0.0189 z-score
CIRBP
  binding signal: -0.0889 z-score
DHX36
  binding signal: 0.175 z-score

B7: hsa-mir-4673 (structured_RNA)
RNA: GGGAGGACCAAUGUGUAUAACGCGAUUAGGUGUACGAAGUUUCAGCUGGACCUCAGGGAAGAGGCUGGCUGAAGCUUCGUGCAC
LIN28A
  binding signal: 0.0182 z-score
CIRBP
  binding signal: 1.02 z-score
DHX36
  binding signal: 0.162 z-score

B8: NEAT1_ParasoR_ID28 (structured_RNA)
RNA: GGGAAGCCCCUGAAGUGAGUAAGUUAUCGGUGUACGAAGUUUCAGCCUGAGUUGCUUCACUUAGGCUGAAGCUUCGUGCAC
LIN28A
  binding signal: 0.0158 z-score
CIRBP
  binding signal: 0.941 z-score
DHX36
  binding signal: 0.259 z-score

B9: hsa-mir-5687 (structured_RNA)
RNA: GGGAAAUUCCGGCACGGGCGGUUAAAAUGGUGUACGAAGUUUCAGCCUAAAUGGUACCCACUUUAUUUAGGCUGAAGCUUCGUGCAC
LIN28A
  binding signal: 0.0115 z-score
CIRBP
  binding signal: -0.99 z-score
DHX36
  binding signal: -0.804 z-score

B10: hsa-mir-5787 (structured_RNA)
RNA: GGGACCUGGUGGUCCUAGUUAAACCUCGGGUGUACGAAGUUUCAGCAGGUGCUAGGUCGGCCUCGGCGCUGAAGCUUCGUGCAC
LIN28A
  binding signal: 0.0108 z-score
CIRBP
  binding signal: -0.412 z-score
DHX36
  binding signal: -0.987 z-score

B11: hsa-mir-8069-2_8069-1 (structured_RNA)
RNA: GGGAAGGACGUCAGCAAAACUAGCUCGCGGUGUACGAAGUUUCAGCAUCUUCCUGACCUGGUAAUAAUUAGGUGAGAAGGAUGCUGAAGCUUCGUGCAC
LIN28A
  binding signal: 0.00845 z-score
CIRBP
  binding signal: -0.194 z-score
DHX36
  binding signal: -0.0446 z-score

B12: hsa-mir-4642 (structured_RNA)
RNA: GGGAAAACACCACCGUGCUGCAUUCGAUGGUGUACGAAGUUUCAGCGGCUGUGGCCUAGGGCAAGCCACAAAGCCGCUGAAGCUUCGUGCAC
LIN28A
  binding signal: 0.00489 z-score
CIRBP
  binding signal: 0.404 z-score
DHX36
  binding signal: 0.793 z-score

B13: hsa-mir-6077 (structured_RNA)
RNA: GGGAGGUUGGAGUCAGAAGCAUCGCCUGGGUGUACGAAGUUUCAGCCUUCGCGCUAGUUUGUUUGUGUUAAGGCUGAAGCUUCGUGCAC
LIN28A
  binding signal: 0.00211 z-score
CIRBP
  binding signal: 0.444 z-score
DHX36
  binding signal: 0.204 z-score

B14: hsa-mir-6866 (structured_RNA)
RNA: GGGAACCAGUUAGACUGUUACCCAGGUUGGUGUACGAAGUUUCAGCGAUUCUUGAGGCUUGGAAGAGUAAGGAUCGCUGAAGCUUCGUGCAC
LIN28A
  binding signal: -0.00211 z-score
CIRBP
  binding signal: -0.831 z-score
DHX36
  binding signal: -0.865 z-score

B15: hsa-mir-4680 (structured_RNA)
RNA: GGGAACGCCCCAGAUAACUAUGCGCUGAGGUGUACGAAGUUUCAGCUAGAUGUUAUAAAAAUAUAUAUCUGGCUGAAGCUUCGUGCAC
LIN28A
  binding signal: -0.0053 z-score
CIRBP
  binding signal: -0.411 z-score
DHX36
  binding signal: -0.879 z-score

B16: hsa-mir-4458 (structured_RNA)
RNA: GGGAAUAUGGACAGGCUCCCCGUAUAUCGGUGUACGAAGUUUCAGCAGAAAGUGAAACACUAUUUUAGGUUUUGCUGAAGCUUCGUGCAC
LIN28A
  binding signal: -0.00537 z-score
CIRBP
  binding signal: 0.322 z-score
DHX36
  binding signal: -1.09 z-score

B17: hsa-mir-4999 (structured_RNA)
RNA: GGGAAUGUACACGGAGAGUAACCCGGAAGGUGUACGAAGUUUCAGCGUGAUAGGAUUUAUCACGCUGAAGCUUCGUGCAC
LIN28A
  binding signal: -0.0076 z-score
CIRBP
  binding signal: 0.657 z-score
DHX36
  binding signal: -0.327 z-score

B18: hsa-mir-3064 (structured_RNA)
RNA: GGGACAAAUGUGAGGCCAAGGGUCUGGUGGUGUACGAAGUUUCAGCCAAAACUCCGUACAUUGCUAUUUUGCGCUGAAGCUUCGUGCAC
LIN28A
  binding signal: -0.00831 z-score
CIRBP
  binding signal: -0.358 z-score
DHX36
  binding signal: -0.158 z-score

B19: hsa-mir-1277 (structured_RNA)
RNA: GGGAAACUUGACGGGGAUCACUAAGAACGGUGUACGAAGUUUCAGCCGUAUGUGUAUAUAAAUGUAUACGGCUGAAGCUUCGUGCAC
LIN28A
  binding signal: -0.00881 z-score
CIRBP
  binding signal: 1.04 z-score
DHX36
  binding signal: -0.166 z-score

B20: hsa-mir-8054 (structured_RNA)
RNA: GGGAGGGUAGAUCCGAAAGUUUCAAGUCGGUGUACGAAGUUUCAGCGGGUUCAAUAGAUUGCUUUAGCUGAAGCAAGCCUGCUGAAGCUUCGUGCAC
LIN28A
  binding signal: -0.0106 z-score
CIRBP
  binding signal: -0.586 z-score
DHX36
  binding signal: -0.802 z-score

B21: hsa-mir-4290 (structured_RNA)
RNA: GGGAAGCCACCUCGGAGAUGUCUAACCAGGUGUACGAAGUUUCAGCGUCAGUCCCAAUCUGAAUCCCACCAAAAUAGGUGGUAGAGGGUUGCGCUGAAGCUUCGUGCAC
LIN28A
  binding signal: -0.0113 z-score
CIRBP
  binding signal: 0.71 z-score
DHX36
  binding signal: 0.278 z-score

B22: hsa-mir-193a (structured_RNA)
RNA: GGGAAACCCGAGCAGCAUCCCGAAUGUUGGUGUACGAAGUUUCAGCAGAUGAGGGUGUCGGAUCAACUGCUGAAGCUUCGUGCAC
LIN28A
  binding signal: -0.0201 z-score
CIRBP
  binding signal: 0.372 z-score
DHX36
  binding signal: -0.564 z-score

B23: hsa-mir-4309 (structured_RNA)
RNA: GGGAAUGUCGAACGUCACGGAUUAGCCAGGUGUACGAAGUUUCAGCUCCAGGAUCUGGGUUUUGAGGUCUUGGGCUGAAGCUUCGUGCAC
LIN28A
  binding signal: -0.0204 z-score
CIRBP
  binding signal: -0.303 z-score
DHX36
  binding signal: -0.417 z-score

B24: hsa-mir-124-1 (structured_RNA)
RNA: GGGAAAGGAGCGCACAUCGAGUAGCCAUGGUGUACGAAGUUUCAGCCUUGAUUUAAAUGUCCAUACAAUUAAGGCUGAAGCUUCGUGCAC
LIN28A
  binding signal: -0.0205 z-score
CIRBP
  binding signal: 0.789 z-score
DHX36
  binding signal: -0.636 z-score

B25: hsa-mir-124-2 (structured_RNA)
RNA: GGGAAUAGUCCAGGCCCGGGAAUGUUACGGUGUACGAAGUUUCAGCCUUGAUUUAAUGUCAUACAAUUAAGGCUGAAGCUUCGUGCAC
LIN28A
  binding signal: -0.0225 z-score
CIRBP
  binding signal: 0.277 z-score
DHX36
  binding signal: -0.271 z-score

B26: hsa-mir-222 (structured_RNA)
RNA: GGGACACAUUGGGAAACGAGCUGCCAUAGGUGUACGAAGUUUCAGCAGAUCCUGUCUUUCGUAAUCAGCAGCUGCUGAAGCUUCGUGCAC
LIN28A
  binding signal: -0.0263 z-score
CIRBP
  binding signal: 0.239 z-score
DHX36
  binding signal: -0.815 z-score
